As usually defined, the IC50 is the midpoint of a concentration-inhibition curve. Lower therefore signals inhibition by little substance.

For one data set, the system named is L02. The data set can be described thus: Antiproliferative activity against human LO2 cells after 72 hrs by MTT assay. The class given is cell-based. The method in brief:
(§1)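 MTT assay with 72 h exposure to graded concentrations in triplicate. MTT solution then DMSO were added, followed by 10 min at room temperature, with absorbance read at 490 nm. IC50 is reported as the mean of three independent experiments. 5-FU served as positive control.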
For orientation: Tetrazolium assays rely on reduction of a dye to a coloured formazan, in cell work by metabolically active cells.

A further data set deals with Bel-7402. Briefly: Antiproliferative activity against human Bel7402 cells after 72 hrs by MTT assay. The class given is functional, cell-based. The method in brief:
as §1

A further data set has as its system HL-60. The data set can be described thus: Antiproliferative activity against human HL60 cells after 72 hrs by MTT assay. The class given is functional, cell-based. The method in brief:
as §1

The nature of data set [1]: Selectivity index, ratio of IC50 for human LO2 cells to IC50 for human Bel7402 cells.
In the next data set the test system is PC-3. Briefly: Antiproliferative activity against human PC3 cells after 72 hrs by MTT assay. The class given is functional, cell-based. The method in brief:
as §1

Another data set concerns Bel7402/5-FU. The data set can be described thus: Antiproliferative activity against human Bel7402/5-FU cells after 72 hrs by MTT assay.

SMILES strings stand for the structures.

With `O=C(O)c1ccc(N(CCCl)CCCl)cc1`, the IC50 is 32.9 µM in the data set on L02; 23.9 µM with Bel-7402; 6.02 µM in the data set on HL-60; more than 80 µM in the data set with PC-3; more than 100 µM in the data set with Bel7402/5-FU. In addition, the Ratio IC50 in data set [1] came out at 1.4.

The values above are taken from ChEMBL document CHEMBL4229335 (Eur J Med Chem, 2018).
